## Yeast mating assay 2: variants of the scFv Ab-95

Target: peptide PDVDLGDISGINAS, taken from heptad repeat 2 (HR2) of SARS-CoV-2 spike.

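The starting antibody came from a phage panning campaign against this peptide. Variants in AAYL52 differ from the parent at up to three CDR positions; double and triple changes were sampled at random. In AlphaSeq, yeast of one mating type display the scFv and yeast of the other type display the target. Mating (16 h, 30 °C) was followed by selection of diploids and sequencing of their barcodes. The ratio of observed to expected reads was calibrated, replicate by replicate, on BCL2-family standards whose Kd was known from biolayer interferometry. There are three technical replicates.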

Parent: Ab-95, a human scFv built as VH, the linker GGGGSGGGGSGGGGS, VL. Only the CDRs of the light chain vary.
VH: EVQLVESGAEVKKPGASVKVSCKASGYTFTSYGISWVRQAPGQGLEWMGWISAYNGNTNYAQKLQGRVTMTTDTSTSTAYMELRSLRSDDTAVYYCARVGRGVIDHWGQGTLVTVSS
VL: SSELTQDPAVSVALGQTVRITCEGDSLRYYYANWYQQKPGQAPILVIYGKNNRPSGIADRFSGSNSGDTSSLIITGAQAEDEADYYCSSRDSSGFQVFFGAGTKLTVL

Positions count from residue 1 of the parent VL; S26E puts E in place of S.
All variants listed here change F95 of the VL, counted from its first residue.
Each Kd is an estimate from the mating assay, the geometric mean of the replicates in which the pair was seen; lower is stronger.
An entry "no signal" has no value in the source: the pair was not observed among the diploids in any replicate. This suggests poor binding but is not conclusive.
Nonspecific signal, from three strains lacking the peptide, appeared in 28% of pairings of library AAYL52, centred on 8.2 µM (5% of these signals below 800 nM); values are not corrected for it. For each scFv, signals with the empty controls are counted beside the result.

* S26E R90E F95C: 360 µM (1 of 3 replicates; controls 3 of 9)
* G24Q F95L F98Y: 800 nM (1 of 3 replicates; controls 1 of 9)
* S92H F95L V97G: 440 nM (3 of 3 replicates; controls 5 of 9)
* E23S N51L F95G: 20 µM (3 of 3 replicates; controls 3 of 9)
* K50H R90I F95Y: 2.6 µM (3 of 3 replicates; controls 4 of 9)
* G24N Y30T F95L: 640 nM (3 of 3 replicates; controls 2 of 9)
* K50F F95E V97W: no signal (0 of 3 replicates; controls 0 of 9)
* G24V P54G F95D: 140 nM (3 of 3 replicates; controls 6 of 9)
* E23W G24P F95Q: 36 µM (1 of 3 replicates; controls 2 of 9)
* N33I N52F F95V: no signal (0 of 3 replicates; controls 4 of 9)
* N52G S55Q F95E: 140 nM (3 of 3 replicates; controls 1 of 9)
* N51H S55V F95D: 1.5 µM (2 of 3 replicates; controls 3 of 9)
* K50I F95W V97R: 2.9 µM (3 of 3 replicates; controls 2 of 9)
* E23M D91G F95Q: 250 nM (3 of 3 replicates; controls 1 of 9)
* Y30F N52L F95S: 690 nM (3 of 3 replicates; controls 4 of 9)
* L27S Y29M F95S: 680 nM (3 of 3 replicates; controls 5 of 9)
* S93H F95Y: 370 nM (3 of 3 replicates; controls 1 of 9)
* P54T S88Q F95A: 1.8 µM (3 of 3 replicates; controls 4 of 9)
* N52P F95T F98L: 17 µM (2 of 3 replicates; controls 1 of 9)
* Y29D S93E F95S: 400 nM (3 of 3 replicates; controls 0 of 9)
* L27C R90I F95D: 1.6 µM (1 of 3 replicates; controls 6 of 9)
* N33M F95G V97F: 5.0 µM (2 of 3 replicates; controls 3 of 9)
* G24M S93G F95D: 1.9 µM (2 of 3 replicates; controls 2 of 9)
* N52C R53H F95D: 7.5 µM (3 of 3 replicates; controls 3 of 9)
* E23K D25W F95V: 1.9 µM (3 of 3 replicates; controls 3 of 9)
* N33D N51I F95W: 17 µM (1 of 3 replicates; controls 0 of 9)
* D91F F95T Q96R: 780 µM (1 of 3 replicates; controls 2 of 9)
* P54V S93K F95A: 11 µM (3 of 3 replicates; controls 2 of 9)
* G49P R90C F95H: no signal (0 of 3 replicates; controls 3 of 9)
* S92D F95K Q96H: 2.8 µM (3 of 3 replicates; controls 6 of 9)
* N33A R90L F95I: 3.9 µM (1 of 3 replicates; controls 5 of 9)
* G49I F95G: 17 µM (2 of 3 replicates; controls 5 of 9)
* N51L S92E F95E: 5.3 µM (2 of 3 replicates; controls 0 of 9)
* A32E F95N F98C: 3.8 µM (1 of 3 replicates; controls 0 of 9)
* Y30N Y31E F95C: 50 nM (3 of 3 replicates; controls 4 of 9)
* K50T S89A F95G: 1.2 µM (3 of 3 replicates; controls 4 of 9)
* P54K F95N: 140 µM (2 of 3 replicates; controls 4 of 9)
* S93T G94T F95L: no signal (0 of 3 replicates; controls 2 of 9)
* R28G S89Y F95M: 93 nM (3 of 3 replicates; controls 4 of 9)
* E23S F95Y: 45 nM (3 of 3 replicates; controls 2 of 9)
* D25C L27V F95N: 19 µM (2 of 3 replicates; controls 5 of 9)
* N52P F95V F98A: no signal (0 of 3 replicates; controls 1 of 9)
* A32R F95Q: no signal (0 of 3 replicates; controls 0 of 9)
* G49T F95E Q96V: 43 µM (3 of 3 replicates; controls 2 of 9)
* F95T Q96E V97P: no signal (0 of 3 replicates; controls 1 of 9)
* F95D V97Q: 3.2 µM (1 of 3 replicates; controls 2 of 9)
* D25T S92N F95E: 770 nM (3 of 3 replicates; controls 6 of 9)
* G24D R28P F95Y: 1.4 µM (2 of 3 replicates; controls 2 of 9)
* Y31K S89R F95L: no signal (0 of 3 replicates; controls 3 of 9)
* R90C F95G: 47 nM (3 of 3 replicates; controls 3 of 9)

Extract of 4 entries:

changes	apparent Kd	detected	signal with controls
G24Q F95L F98Y	800 nM	1 of 3	1 of 9
K50T S89A F95G	1.2 µM	3 of 3	4 of 9
D25C L27V F95N	19 µM	2 of 3	5 of 9
K50I F95W V97R	2.9 µM	3 of 3	2 of 9

Reference: Engelhart et al. 2022, doi:10.1038/s41597-022-01779-4. File: FLAb, binding data.